What was measured:
SARS-CoV-2 M^Pro = SARS-CoV-2 M^Pro (Severe acute respiratory syndrome coronavirus 2, UniProt P0DTD1); experiment: Determination of kinact/KI values for SARS-CoV-2 M^Pro (time- and concentration-dependent inactivation); type: biochemical; details: read-out: M^Pro kinact/KI
Procedure: where νo is the initial velocity of uninhibited reaction and νi is the initial velocity in the presence of inhibitor. All measurements were done in triplicate. Determination of kinact/KI values for SARS-CoV-2 M^Pro
Time- and concentration-dependent inactivation assays were done by following a similar protocol as described for Ki determination. M^Pro (12.5 nM final) was treated with the peptide-substrate (30 μM final) and test inhibitor (0-80 μM for D-FF(R/Cit)-(CMK/CMKyne); 0-1.25 mM for SM136-145) at time=0 to initiate inactivation process. The total volume of the assay mixture was 50 μL. Time-dependent increase in fluorescence was monitored at 485 nm with excitation at 340 nm for a period of 20-25 min. The observed rates (kobs) for the peptide cleavage in both the presence and absence of inhibitor were determined by fitting to a single-phase association equation. The resulting kobs values were plotted against the concentrations of inhibitor and linear fits were used to derive the slope that afforded the kinact/KI values. All measurements were done in triplicate.

By UniProt entry, the sequences of proteins in these tests, tags left out. Residues count along the entry.
UniProt P07711, 114-333: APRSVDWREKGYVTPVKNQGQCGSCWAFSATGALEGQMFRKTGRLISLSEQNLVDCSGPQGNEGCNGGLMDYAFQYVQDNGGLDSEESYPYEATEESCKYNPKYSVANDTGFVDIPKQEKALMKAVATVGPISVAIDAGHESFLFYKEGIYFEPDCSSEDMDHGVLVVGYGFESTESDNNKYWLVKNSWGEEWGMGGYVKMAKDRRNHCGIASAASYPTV

Cathepsin L = target: T1, Cathepsin L (Homo sapiens, UniProt P07711); experiment: Cathepsin L inhibition assay kit (Abcam), IC50 and kinact/KI; type: biochemical
T1 construct: purchased Abcam ab197012
Procedure: Determination of IC50 and kinact/KI values for Cathepsins L and B
IC50 and kinact/KI values of the inhibitors were determined using commercially available inhibition assay kits (Abcam) by following the manufacturer's protocol. […] The observed rates (kobs) were determined by fitting to a single-phase association equation. The resulting kobs values were plotted against the concentrations of inhibitor and the data were fit to equation 2 to derive the kinact/KI values,
using GraphPad Prism, where kinact is the maximal rate of inactivation, KI is the concentration of inhibitor that affords half-maximal inactivation, and [I] is the concentration of inhibitor. When kobs with [I] varied linearly, kinact/KI was determined from the slope of the line. All the experiments were performed in triplicate. […] Crystallization of M^Pro in Complex with Inhibitors

## CCOC(=O)C=CC(CC1CCNC1=O)NC(=O)C(Cc1ccccc1)NC(=O)C(N)Cc1ccccc1 (stereo not drawn) [SM141]
SARS-CoV-2 M^Pro
  kinact/KI: 333 M⁻¹ s⁻¹
Cathepsin L
  potency for CatL inhibition relative to M^Pro (IC50 and kinact/KI): 10 fold
Cathepsin L; read-out: Cathepsin L kinact/KI
  kinact/KI: 3170 M⁻¹ s⁻¹

From patent US20250326715A1, “NOVEL MAIN PROTEASE INHIBITORS, AND COMPOSITIONS AND METHODS THEREOF” (University of Massachusetts, priority 2023, published 2025)
